# Measurements: paper PMC10229426, “An optimized bioluminescent substrate for non-invasive imaging in the brain” (Nature Chemical Biology, 2023)
# Sequences of proteins named here, by UniProt entry; tags and fusion partners are left off.
# UniProt P08659, whole entry: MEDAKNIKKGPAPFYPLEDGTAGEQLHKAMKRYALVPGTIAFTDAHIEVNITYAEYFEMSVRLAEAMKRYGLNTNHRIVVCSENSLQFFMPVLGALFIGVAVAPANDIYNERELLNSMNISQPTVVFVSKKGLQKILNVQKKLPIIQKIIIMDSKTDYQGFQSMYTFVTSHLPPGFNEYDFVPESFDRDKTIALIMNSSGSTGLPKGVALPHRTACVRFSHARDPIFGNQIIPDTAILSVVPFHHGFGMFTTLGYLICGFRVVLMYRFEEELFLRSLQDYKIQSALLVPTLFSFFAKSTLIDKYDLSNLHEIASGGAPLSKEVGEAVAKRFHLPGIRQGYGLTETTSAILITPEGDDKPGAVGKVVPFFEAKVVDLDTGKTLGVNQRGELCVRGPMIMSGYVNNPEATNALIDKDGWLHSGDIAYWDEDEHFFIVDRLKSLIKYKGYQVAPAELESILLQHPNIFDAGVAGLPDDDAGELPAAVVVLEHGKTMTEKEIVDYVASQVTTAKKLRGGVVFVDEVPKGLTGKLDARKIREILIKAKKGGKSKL
# Biological target: T1, FLuc (Photinus pyralis, UniProt P08659)
# T1 construct: expressed in transfected cells; host or cells: transgenic mice with CAG-LSL-FLuc at the H11 locus, crossed to Cre driver lines
# Experiment: Bioluminescence imaging of transgenic mice expressing FLuc in the brain
# Type: in vivo, mouse
# Conditions: FLuc expressed under Camk2a-cre control
smiles,measurement,value
O=C(O)[C@H]1CSC(c2nc3ccc(O)cc3s2)=N1 [D-luciferin],brain signal distribution,expected forebrain-specific signal
